The text below walks through data of PubChem BioAssay AID504454 (NMMLSC, 2011).

The chains behind the UniProt entries cited, without tags or fusion partners.
UniProt P07550, whole entry: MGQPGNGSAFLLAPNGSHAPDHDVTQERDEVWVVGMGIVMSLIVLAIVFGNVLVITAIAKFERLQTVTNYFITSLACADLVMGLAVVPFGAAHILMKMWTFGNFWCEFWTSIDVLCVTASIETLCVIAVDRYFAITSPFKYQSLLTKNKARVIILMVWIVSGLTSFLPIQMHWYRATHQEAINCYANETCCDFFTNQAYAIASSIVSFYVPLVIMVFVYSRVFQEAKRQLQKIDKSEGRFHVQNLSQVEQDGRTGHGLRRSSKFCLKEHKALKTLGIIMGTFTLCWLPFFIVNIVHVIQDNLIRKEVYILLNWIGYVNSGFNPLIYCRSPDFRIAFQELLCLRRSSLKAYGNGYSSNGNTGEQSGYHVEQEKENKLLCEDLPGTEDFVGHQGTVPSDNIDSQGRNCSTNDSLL

This is a selection; strong and weak results do not stand in their true shares. Some salts or complexes appear as unconnected parts, following the source record. Active and inactive are the calls of the source.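 How the source made its calls: active means response above a set limit, near 3 SD of response in nonfluorescent compounds (cut at about 42% in these data); inactive means the rest.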

This test deals with Beta-2 adrenergic receptor (Homo sapiens) (UniProt P07550). Nature of the test: agonist-induced loss of surface beta2AR – cell-based, FAP fluorogen, flow cytometry, primary screen (AID 504454). The note with it: Am2.2-beta2AR cells, FAP receptor internalization, stronger effect = higher value, concentration not given here.
Take `COC(=O)C1(C)COP(=O)(Nc2ccccc2)OC1` (stereo not drawn): the response is inactive: -2.48%.
In the case of `O=[N+]([O-])c1cccc(NC2=NCC(CBr)S2)c1` (stereo not drawn) it was inactive: 3.17%; in that of `O=C(O)CNc1ccc([As](=O)(O)O)cc1`, inactive: -6.03%.
Regarding `CC(C)(C)C(=O)NC(Sc1ccncn1)C(Cl)(Cl)Cl` (stereo not drawn), the response is inactive: 2.21%.
In the case of `O=[N+]([O-])c1ncn(CCn2ncnc2[N+](=O)[O-])n1` it was inactive: 3.8%.
`CCOC(=O)c1ccc(NP(C)(=O)Oc2ccc(Cl)cc2)cc1` (stereo not drawn): the response is inactive: -8.25%.
For the molecule `O=C(Nc1cc([As](=O)(O)O)ccc1O)c1ccccc1`, the response is inactive: -3.53%.
For `CP(=O)(OC12CC3CC(CC(C3)C1)C2)OC12CC3CC(CC(C3)C1)C2`, the response was inactive: -6.02%.
As for `Nc1ccc2c(ccc3cccnc32)n1.O=[N+]([O-])c1cc([N+](=O)[O-])c(O)c([N+](=O)[O-])c1`, the response is inactive: 16.8%.
For `O=P1(N(CCCl)CCCl)OCCCS1` (stereo not drawn), the response was inactive: -8.16%.
Under `CC(C)=N/N=C(\N)N[N+](=O)[O-]` stands inactive: -6.58%; under `CN(C)C(=O)c1c([N+](=O)[O-])cc([N+](=O)[O-])cc1[N+](=O)[O-]`, inactive: 7.68%.
Under `CN(C)C(=O)OCCc1n(C)cc[n+]1C` stands inactive: -10.1%.
In the case of `CC1CCN(C(=O)Oc2c(Cl)cc(Cl)c3cccnc23)CC1` it was inactive: 4%; in that of `COc1ccccc1OP(C)(=O)Nc1ccccc1Br` (stereo not drawn), inactive: -1.33%.
In the case of `Nc1ccc([As](=O)(O)c2ccc(N)cc2)cc1`, the response is inactive: -2.96%.
Regarding `CC(C)(C)c1ccc(OP(C)(=O)O)cc1`, the response was inactive: 5.91%.
Regarding `C[N+]1=C2C=CC=CC=C2SC12C([N+](=O)[O-])=CC([N+](=O)[O-])=C[C-]2[N+](=O)[O-]` (stereo not drawn), the response was inactive: 41.8%.
Under `CCN(/C(=N/P(=O)(N1CCOCC1)N1CCOCC1)N1CCOCC1)c1ccc(OC)cc1` stands inactive: -4.64%; under `CP(=O)(Nc1ccc(Cl)cc1)Oc1ccc(F)cc1` (stereo not drawn), inactive: 0.43%.
As for `CC(=O)N1C2C3N(C(C)=O)C1C1N(C(C)=O)C(C(N1C(C)=O)N3C(C)=O)N2C(C)=O`, the response is inactive: 3.47%.
In the case of `O=[N+]([O-])c1cccc2n[nH]nc12` it was inactive: 6.55%; in that of `COc1ccccc1OP(C)(=O)Nc1c(C)n(C)n(-c2ccccc2)c1=O` (stereo not drawn), inactive: -0.5%.
Under `O=C(OCCCN1CCCC1)C(O)(c1ccccc1)C1CCCCC1` (stereo not drawn) stands inactive: 3.93%; under `Cc1ccc(NP(=O)(Oc2ccccc2)Oc2ccccc2)nc1`, inactive: -7.82%; under `CP(=O)(Oc1ccccc1)N1CCOC1=O` (stereo not drawn), inactive: 3.73%.
In the case of `CCc1ccc(OP(C)(=O)Nc2cccnc2)cc1` (stereo not drawn), the response is inactive: -2.29%.
Turning to `O=[N+]([O-])c1cc([N+](=O)[O-])c(CCNc2ccccc2)c([N+](=O)[O-])c1`, the response is inactive: 0.8%.
As to `CCc1nc2c(n1)c1c(non1O)c1c2no[n+]1[O-]`, the response is inactive: 13.2%.
Regarding `CCN(CC)CC(O)COC(=O)C(O)(c1ccccc1)C1CCCCC1` (stereo not drawn), the response is inactive: -27.1%.
Under `COc1ccc(C2=NCC(CBr)S2)cc1` (stereo not drawn) stands inactive: -2.93%; under `COc1ccc(OP(C)(=O)Nc2ccc(Br)cc2)cc1` (stereo not drawn), inactive: -3.64%.
For `CP(=O)(Nc1ccccn1)Oc1ccccc1` (stereo not drawn), the response was inactive: 0.15%.
Under `COc1ccccc1OP(C)(=O)Nc1ccc(C)cc1C` (stereo not drawn) stands inactive: 2.21%.
As to `CCc1ccc(OP(C)(=O)O)cc1`, the response was inactive: 1.32%.
Under `Nc1cc(N)c2nonc2c1[N+](=O)[O-]` stands inactive: 1.65%; under `Cc1c(NP(C)(=O)Oc2ccc(C(C)C)cc2)c(=O)n(-c2ccccc2)n1C` (stereo not drawn), inactive: -9.56%.
`O=[N+]([O-])c1cc([N+](=O)[O-])c(Nc2ccccn2)c([N+](=O)[O-])c1`: the response was inactive: 18.5%.
Under `CC(C)CC(=O)NC(Sc1ccc(Cl)cc1)C(Cl)(Cl)Cl` (stereo not drawn) stands inactive: 0.1%; under `Oc1ccccc1CNc1ccccn1`, inactive: -3.26%; under `O=C(NC(Sc1ccncn1)C(Cl)(Cl)Cl)c1ccccc1` (stereo not drawn), inactive: -4.32%.
In the case of `COc1ccccc1OP(=O)(Nc1ccc(C)cn1)Oc1ccccc1OC`, the response was inactive: 5.95%.
In the case of `COc1ccc(OP(C)(=O)Nc2ccccn2)cc1` (stereo not drawn), the response is inactive: 11.3%.
As for `Cc1ccc(OP(=O)(Nc2nccs2)Oc2ccc(C)cc2)cc1`, the response was inactive: 6.84%.
As for `CN1CCCC(OC(=O)C(c2ccccc2)c2ccccc2)C1` (stereo not drawn), the response was inactive: 0.75%.
Under `CN(C)CCOC(=O)C(O)(c1ccccc1)C1CCCC1` (stereo not drawn) stands inactive: -2.37%; under `Clc1ccc(Cl)c(NC2=NCC(CBr)S2)c1` (stereo not drawn), inactive: 17.4%; under `NC(=O)c1cc([N+](=O)[O-])cc([N+](=O)[O-])c1N`, inactive: -6.24%.
`CN(C(=O)Cc1ccc(Cl)c(Cl)c1)[C@H]1CCCC[C@H]1N1CCCC1`: the response was inactive: -5.53%.
Turning to `COc1ccccc1OP(C)(=O)Nc1ccc(Br)cc1` (stereo not drawn), the response is inactive: -4.55%.
On to `Cc1ccc(N/C(=N/P(=O)(N2CCOCC2)N2CCOCC2)N2CCOCC2)cc1`, for which the response was inactive: 1.55%.
As for `CCN(N=Nc1nonc1N)c1nonc1N`, the response is inactive: 4.75%.
Under `Nc1cccc2ccc([As](=O)(O)O)cc12` stands inactive: 8.35%; under `CP(=O)(Nc1ccc(Cl)cc1Cl)Oc1ccccc1` (stereo not drawn), inactive: 5.03%; under `CCCCCCCCCCCCCCCC1C[N+](C)(C)CCOP(C)(=O)O1` (stereo not drawn), inactive: 4.49%.
In the case of `CP(=O)(OCCOc1ccccc1)OCCOc1ccccc1` it was inactive: 6.57%; in that of `Cc1cc(SC(NC(=O)c2ccc(F)cc2)C(Cl)(Cl)Cl)ncn1` (stereo not drawn), inactive: 3.37%; in that of `CCOP(=O)(Nc1ccccc1)OCC`, inactive: -2.59%.
Under `COc1ccccc1OP(C)(=O)Nc1ccc(C)c(C)c1` (stereo not drawn) stands inactive: 10.6%.
Regarding `CN(C(=O)Cc1ccc(Cl)c(Cl)c1)[C@H]1CCCC[C@@H]1N1CCCC1`, the response was inactive: -7.93%.
In the case of `Cc1ccc(NP(=O)(Oc2ccccc2F)Oc2ccccc2F)nc1` it was inactive: -2.39%; in that of `COc1ccc(OP(C)(=O)Nc2ccccc2Br)cc1` (stereo not drawn), inactive: -0.36%.
In the case of `CC(=O)Nc1ccc([As](=O)(O)O)cc1` it was inactive: -13.5%.
In the case of `O=C(O)c1ccccc1[As](=O)(O)O` it was inactive: -7.33%; in that of `CCCC1OP(N)(=O)OCC1CC` (stereo not drawn), inactive: 6.47%; in that of `O=C1C(O)=C([N+](=O)[O-])C(=O)C(O)=C1[N+](=O)[O-]`, inactive: 11.2%.
Consider `O=P(Nc1nc2ccc(Cl)cc2s1)(c1ccccc1)c1ccccc1`, for which the response is inactive: -4.46%.
Under `Cc1cc(C)cc(OP(C)(=O)Nc2cccc(C(F)(F)F)c2)c1` (stereo not drawn) stands inactive: 8.3%; under `CP(=O)(Nc1ccccc1)Oc1ccc(F)cc1` (stereo not drawn), inactive: 7.13%; under `CC(NC(=O)COC(=O)C(O)(c1ccccc1)c1ccccc1)c1ccccc1` (stereo not drawn), inactive: -2.13%.
In the case of `Cc1ccccc1OP(=O)(Nc1ccccn1)Oc1ccccc1C` it was inactive: 18.7%.
On to `O=[N+]([O-])c1cc([N+](=O)[O-])c(OC2CCCCC2O)c([N+](=O)[O-])c1` (stereo not drawn), for which the response is inactive: 4.22%.
In the case of `O=c1c2cc([N+](=O)[O-])ccc2[nH]c2c([N+](=O)[O-])cc([N+](=O)[O-])cc12` it was inactive: 22.4%; in that of `CCCCCOc1ccc(NP(C)(=O)Oc2ccc(Cl)cc2Cl)cc1` (stereo not drawn), inactive: -8.9%.
With `CN(C)C(=O)Oc1noc2ccccc12`, the response is inactive: -8.55%.
In the case of `COC(=O)c1cc2c(s1)N=C(c1ccccc1)N(C)P2(=O)N1CCOCC1` (stereo not drawn) it was inactive: 1.96%; in that of `Cc1c([N+](=O)[O-])cc([N+](=O)[O-])c(Br)c1[N+](=O)[O-]`, inactive: -0.48%.
Take `CC(=O)NC(SC(=S)N(CC(C)C)CC(C)C)C(Cl)(Cl)Cl` (stereo not drawn): the response was inactive: 6.04%.
For the molecule `Cc1ccc(OP(=O)(Nc2ccccn2)Oc2ccc(C)cc2)cc1`, the response was inactive: -10.9%.
In the case of `O=C(OC1CN2CCC1CC2)c1ccccc1` (stereo not drawn) it was inactive: -14.5%; in that of `CCC(=O)N1C2C3N(C(=O)CC)C1C1N(C(=O)CC)C(C(N1C(=O)CC)N3C(=O)CC)N2C(=O)CC`, inactive: 11%.
In the case of `CCN(CC)CCCOC(=O)C(O)(c1ccccc1)C1CCCCC1` (stereo not drawn) it was inactive: -4.35%.
Turning to `O=P1(N(CCCl)CCCl)OCCC2CCCCN21` (stereo not drawn), the response was inactive: 1.74%.
In the case of `CCOC(=O)c1ccc(NP(C)(=O)Oc2ccc(F)cc2)cc1` (stereo not drawn) it was inactive: -1.15%; in that of `COc1ccc(OP(C)(=O)Nc2ccc(SC(F)(F)F)cc2)cc1` (stereo not drawn), inactive: -6.01%.
Take `O=C(NC1CCS(=O)(=O)C1)NP(=S)(Oc1ccccc1)Oc1ccccc1` (stereo not drawn): the response is inactive: 12.6%.
Turning to `CCNC(=S)/N=C(\N)N[N+](=O)[O-]`, the response was inactive: -1.5%.
In the case of `c1ccc(-c2nn[nH]n2)c(-c2nn[nH]n2)c1` it was inactive: -0.88%; in that of `Cc1ccc(NP(=O)(Oc2cccc(C)c2)Oc2cccc(C)c2)nc1`, inactive: -6.66%; in that of `CC(=O)Nc1ccc([As](=O)(O)O)c(O)c1`, inactive: -3.63%.
Regarding `COc1ccc2c(c1O)-c1c(O)c(OC)cc3c1[C@H](C2)[N+](C)(C)CC3.O=[N+]([O-])c1cc([N+](=O)[O-])c([O-])c([N+](=O)[O-])c1[O-]`, the response was inactive: -0.37%.
In the case of `CC(=O)Nc1ccc(Oc2c([N+](=O)[O-])cc([N+](=O)[O-])cc2[N+](=O)[O-])cc1` it was inactive: 12.3%.
Turning to `CC(=O)c1ccc(N2CC2c2ccncc2)cc1` (stereo not drawn), the response was inactive: -0.98%.
Take `N#C/C(=C\c1ccc(N(CCBr)CCBr)cc1)C(N)=O`: the response was inactive: 10.7%.
`COC(=O)C1(C)COP(=O)(NCc2ccccc2)OC1` (stereo not drawn): the response was inactive: -4.65%.
In the case of `O=C(OC1CN2CCC1CC2)c1ccc([N+](=O)[O-])cc1` (stereo not drawn) it was inactive: 0.83%; in that of `O=C(OCCN1CCN(CCOCc2ccccc2)CC1)C(O)(c1ccccc1)c1ccccc1`, inactive: -9.25%.
`Cc1ccccc1CN(C)C(=O)COC(=O)C(O)(c1ccccc1)c1ccccc1`: the response was inactive: -9.91%.
